Patent publication US10081632B2, “Substituted tetrahydropyrido[3′,2′:4,5]pyrrolo[1,2-α]pyrazine-2-carboxamides as RSK inhibitors” (Phoenix Molecular Designs, priority 2016, dated 2018)
Where a name gives a salt, the structure may show the parent alone.

Legend:
[1] = test system: MDA-MB-231, MDA-MB-468 or 4T1 cell lines; assay: Soft agar growth inhibition assay, over MDA-MB-231, MDA-MB-468 and 4T1; assay type: cell-based; conditions: range over MDA-MB-231, MDA-MB-468, 4T1; read-out: IC50 Values - Soft Agar (14-22 Days), Range, All
[2] = test system: MDA-MB-231, MDA-MB-468, SUM-149-PTX, HCC1143, HCC1937 or 4T1 cells; assay: Induction of cell death, PARP cleavage and P-YB-1 immunoblotting in TNBC models; conditions: 120 hrs
[3] = test system: MDA-MB-231 cells; assay: Monolayer growth inhibition, crystal violet assay; assay type: cell-based; conditions: Homo sapiens, MDA-MB-231, MDA-MB-231 (TNBC), 5 days, single dose on day 1
[4] = test system: MDA-MB-231 cells; assay: Monolayer growth inhibition, Alamar blue assay; assay type: cell-based; conditions: Homo sapiens, MDA-MB-231, MDA-MB-231 (TNBC), 5 days, single dose on day 1

| IC50 [1] | Structure (SMILES) | other results |
| --- | --- | --- |
| 400 to 3100 nM | C[C@@H]1CNC(=O)c2cc3ccc(C(=O)Nc4ccccc4C(N)=O)nc3n21 [Compound 21, (R)—N-(2-carbamoylphenyl)-9-methyl-6-oxo-6,7,8,9-tetrahydropyrido[3′,2′:4,5]pyrrolo[1,2-a]pyrazine-2-carboxamide] |  |
|  | C[C@@H]1CNC(=O)c2cc3ccc(NC(=O)c4cnn(Cc5ccccc5)c4)nc3n21 [Compound 15, (R)-1-benzyl-N-(9-methyl-6-oxo-6,7,8,9-tetrahydropyrido[3′,2′:4,5]pyrrolo[1,2-a]pyrazin-2-yl)-1H-pyrazole-4-carboxamide] | IC50 [3]: 21000 ± 7500 nM; IC50 [4]: 21300 ± 5400 nM |
| 400 to 2500 nM | C[C@@H]1CNC(=O)c2c(Cl)c3ccc(C(=O)Nc4cnn(Cc5ccccc5)c4)nc3n21 [Compound 24, (R)—N-(1-benzyl-1H-pyrazol-4-yl)-5-chloro-9-methyl-6-oxo-6,7,8,9-tetrahydropyrido[3′,2′:4,5]pyrrolo[1,2-a]pyrazine-2-carboxamide] |  |
| 200 to 6900 nM | C[C@@H]1CNC(=O)c2cc3ccc(C(=O)Nc4cnn(Cc5ccc(C(F)(F)F)cc5)c4)nc3n21 [Compound 22, (R)-9-methyl-6-oxo-N-(1-(4-(trifluoromethyl)benzyl)-1H-pyrazol-4-yl)-6,7,8,9-tetrahydropyrido[3′,2′:4,5]pyrrolo[1,2-a]pyrazine-2-carboxamide] |  |
| 200 to 5300 nM | C[C@@H]1CNC(=O)c2cc3ccc(C(=O)Nc4cnn(Cc5ccc(CN)cc5)c4)nc3n21 [Compound 26, (R)—N-(1-(4-(aminomethyl)benzyl)-1H-pyrazol-4-yl)-9-methyl-6-oxo-6,7,8,9-tetrahydropyrido[3′,2′:4,5]pyrrolo[1,2-a]pyrazine-2-carboxamide hydrochloride salt] |  |
| 200 to 3500 nM | C[C@@H]1CNC(=O)c2cc3ccc(C(=O)Nc4cnn(Cc5cccc(N)c5)c4)nc3n21 [Compound 16, (R)—N-(1-(3-aminobenzyl)-1H-pyrazol-4-yl)-9-methyl-6-oxo-6,7,8,9-tetrahydropyrido[3′,2′:4,5]pyrrolo[1,2-a]pyrazine-2-carboxamide] |  |

| Structure (SMILES) | IC50 [1] | other results |
| --- | --- | --- |
| C[C@@H]1CNC(=O)c2cc3ccc(C(=O)Nc4cnn(Cc5ccc(F)cc5F)c4)nc3n21 [Compound 23, (R)—N-(1-(2,4-difluorobenzyl)-1H-pyrazol-4-yl)-9-methyl-6-oxo-6,7,8,9-tetrahydropyrido[3′,2′:4,5]pyrrolo[1,2-a]pyrazine-2-carboxamide] | 300 to 4000 nM |  |
| C[C@@H]1CNC(=O)c2cc3ccc(C(=O)Nc4cnn(Cc5ccc(N)cc5)c4)nc3n21 [Compound 25, (R)—N-(1-(4-aminobenzyl)-1H-pyrazol-4-yl)-9-methyl-6-oxo-6,7,8,9-tetrahydropyrido[3′,2′:4,5]pyrrolo[1,2-a]pyrazine-2-carboxamide hydrochloride salt] | 200 to 4100 nM | Total levels of PARP ([2]; 2, 4 or 6 uM): not affected; Apoptosis based on PARP cleavage ([2]; 2, 4 or 6 uM, relative to DMSO control): undergone apoptosis based on PARP cleavage; P-YB-1 level ([2]; all cell lines, 2, 4 or 6 uM, relative to DMSO controls): consistently reduced |
| C[C@@H]1CNC(=O)c2cc3ccc(C(=O)Nc4cnn(Cc5ccc(N)cc5)c4)nc3n21 [Compound 18, (R)—N-(1-(4-aminobenzyl)-1H-pyrazol-4-yl)-9-methyl-6-oxo-6,7,8,9-tetrahydropyrido[3′,2′:4,5]pyrrolo[1,2-a]pyrazine-2-carboxamide] | 100 to 2500 nM |  |
